Reference: article PMC4823272 (Frontiers in Microbiology, 2016)

System: HA of the H1N1 strain (A/New Caledonia/20/99)
Experiment: AFM binding of H1 HA to lipid membranes (HA-bound area)
Parameters: species or system influenza virus A/New Caledonia/20/99 (H1N1)
Settings: [HA] = 2.4–24 nM, 25°C, 1 h

## CCCCCCCCCCCCCCCC(=O)OCC(COP(=O)(O)OCCN)OC(=O)CCCCCCCCCCCCCCC (centres unmarked) [DPPE, dipalmitoylphosphatidylethanolamine]
HA-bound area, n = 3
  H1 HA binding, result in words: no significant binding
Binarized images
  HA-bound area (upper bound over tested HA concentrations): ≤ 10%
